Data taken from patent US20030181436A1, “Treatment for AIDS, HIV, and other related diseases and compounds for use therewith” (priority 2001, published 2003).

Tests used:
[1] = test system: CEM-SS cells chronically infected with SK-1; experiment: Chronically infected CEM/SK-1 cell assay, cell viability by MTS; type: cell-based
Experimental: Fifty thousand (5.0×104) CEM-SS cells chronically infected with the SK-1 strain of HIV in exponential growth were placed into 0.2 cm wells in a total volume of 200 ul with or without serial dilutions of compound. The chronically infected CEM cells were cultured and the assay performed in RPMI 1640 supplemental with 10% Fetal Bovine Serum (heat inactivated), 2 mM L-glutamine, 100 U/mL penicillin, […] and 10 ug/mL gentamycin. On day 3 cell-free supernatants were collected and cell viability measured by MTS dye reduction. (See Table 13 and FIG. 20).

[2] = test system: HeLa CD4 LTR B-gal cells; experiment: Attachment assay, toxicity on sister plates by MTS; type: cell-based
Experimental: The attachment assay was performed with the HeLa CD4 LTR B-gal cells available from the AIDS Research and Reference Reagent Repository. […] HeLa CD4 LTR B-gal cells express cell surface CD4 and contain an LTR B-galactosidase reporter construct. Upon infection either the Tat protein incorporated into the virion or new Tat produced following virus integration and transcription trans-activate the LTR B-gal reporter, leading to expression of the B-galactosidase enzyme. HeLa CD4 LTR B-gal cells are routinely cultured with the required selection antibiotics and scrended for mycoplasma contamination. Twenty-four h prior to initiation of the assay cells were trypsinized, counted and 1×10^4 cells placed in a 0.2 cm well in media without selection antibiotics. Media was removed and compound media placed on the cells and incubated for 15 to 30 min at 37° C. A known titer of virus was then added to the wells and the incubation continued for 1 h. At the end of the incubation the wells were washed 6 times with media and the culture continued for 48 h. At 48 h the wells were washed one time with PBS and B-galactosidase enzyme expression determined by chemiluminescence per manufacturers instructions (Tropix Gal-screen TM, Tropix, Bedford, Mass.). Compound toxicity was monitored on sister plates using MTS dye reduction. (See Tables 14 through 16 and FIGS. 21 and 22).

[3] = test system: ACH-2 cells; experiment: ACH-2 assay, compound toxicity by MTS dye reduction; type: cell-based; parameters: 9′. CC: unit not given here; conditions: for 9′. CC: exp 2; for % CC: exp 1
Experimental: (§1) U1 and ACH-2 cells were obtained from the AIDS Research and Reference Reagent Program and maintained under standard culture conditions in RPMI 1640 supplemented with 10% fetal bovine serum (heat inactivated), supplemented with 2 mM […], 100U/ml penicillin and 100 μg/ml, streptomycin. U1 cells were derived from the histocytic leukemia cell line U937, and contain a single integrated copy (HIV IIIB) […] a cytokine and/or phorbol inducible provirus. ACH-2 cells are derived from the A3.01 T lymphoblastic cell line, and contain 2 copies of the HIV IIIB provirus, however only one is cytokine and/or phorbol inducible. Cultures were maintained in such a way as to ensure exponential growth of the populations. At the time of the assay, cells were collected by centrifugation and counted by hemacytometer. If cell viability by Trypan Blue dye exclusion was less than 70% the assay was terminated. The cells were adjusted to 5×10^4 cells/mL and 100 μL, placed in 96 well plates with 100 μL media containing a final concentration of […] TNFα and the test compound. Cultures were incubated for 3 days and supernatants harvested. Compound toxicity was determined by MTS dye reduction. Virus expression was measured by supernatant reverse transcriptasc activity.

[4] = test system: HeLa CD4 LTR β-gal cells; experiment: Cytotoxicity for HeLa CD4 LTR β-gal cells
Experimental: At assay termination the assay plates were stained with the soluble tetrazolium-based dye MTS (CellTiter® Reagent, Promega) to determined cell viability and quantify compound toxicity. […] At termination of the assay 20 μL of MTS reagent was added per well. The wells were incubated for 4 h at 37° C., 5% CO2. Adhesive plate scalers were used in place of the lids, the sealed plate was inverted several times to mix the soluble formazan product and the plate was read spectrophotometrically at 490 nm with a 650 nm reference wavelength on a Molecular Devices Vmax plate reader.
This cell line represents one of 3 standard models for performing time of addition assays.

[5] = test system: U1 cells; experiment: U1 assay, compound toxicity by MTS dye reduction; type: cell-based
Experimental: as §1

## Zinc Iodiscorbate [Compound Z]
[1]; 0.625 μG/Ml
  % CC: 99.8%
[1]; 2 μG/Ml
  % CC: 94.1%
[2]; 0.32 μG/Ml
  % CC: 100.0%
[2]; 1 μG/Ml
  % CC: 100.0%
[2]; 3.2 μG/Ml
  % CC: 100.0%
[2]; 10 μG/Ml
  % CC: 100.0%
[2]; 32 μG/Ml
  % CC: 100.0%
[2]; 100 μG/Ml
  % CC: 100.0%
[3]; 0.00063 μg/ml
  9′. CC: 98.0
[3]; 0.002 μg/ml
  9′. CC: 93.3
[3]; 0.00626 μg/ml
  9′. CC: 96.5
[3]; 0.0625 μg/ml
  9′. CC: 89.8
[3]; 0.00063 μG/Ml
  % CC: 105.6%
[3]; 0.002 μG/Ml [c9]
  % CC: 104.4%
[3]; 0.002 μG/Ml [c11]
  % CC: 107.6%
[3]; 0.00625 μG/Ml
  % CC: 101.4%
[3]; 0.0625 μG/Ml
  % CC: 97.9%
[3]; 0.2 μG/Ml
  % CC: 99.7%
[3]; 0.625 μG/Ml
  % CC: 93.4%
[4]; 3.2 μG/mL
  % CC: 101.1%
[4]; 10 μG/mL
  % CC: 102.8%
[4]; 32 μG/mL
  % CC: 101.7%
  TOXICITY VALUES (Cell Titer) MEAN: 1.164 O. D.
[5]; 0.00063 ug/ml, exp 2
  % CC: 99.2%
[5]; 0.00625 ug/ml, exp 2
  % CC: 103.6%
[5]; 0.02 ug/ml, exp 2
  % CC: 99.9%
[5]; 0.0625 ug/ml, exp 2
  % CC: 100.7%
[5]; 0.2 ug/ml, exp 2
  % CC: 96.9%
[5]; 2 ug/ml, exp 1
  % CC: 97.7%
[5]; 6.25 ug/ml [c4], exp 2
  % CC: 105.0%
[5]; 6.25 ug/ml, exp 1
  % CC: 93.1%
[5]; U1/TNFα, exp 1, Table 3
  TC50: IITC5O (ug/ml) = 114
